Measured values published in ChEMBL document CHEMBL5316313, “Discovery of Novel 3-Phenylpiperidine Derivatives Targeting the β-Catenin/B-Cell Lymphoma 9 Interaction as a Single Agent and in Combination with the Anti-PD-1 Antibody for the Treatment of Colorectal Cancer” (J Med Chem, 2023).

The chains behind the UniProt entries cited, without tags or fusion partners.
UniProt P35222, whole entry: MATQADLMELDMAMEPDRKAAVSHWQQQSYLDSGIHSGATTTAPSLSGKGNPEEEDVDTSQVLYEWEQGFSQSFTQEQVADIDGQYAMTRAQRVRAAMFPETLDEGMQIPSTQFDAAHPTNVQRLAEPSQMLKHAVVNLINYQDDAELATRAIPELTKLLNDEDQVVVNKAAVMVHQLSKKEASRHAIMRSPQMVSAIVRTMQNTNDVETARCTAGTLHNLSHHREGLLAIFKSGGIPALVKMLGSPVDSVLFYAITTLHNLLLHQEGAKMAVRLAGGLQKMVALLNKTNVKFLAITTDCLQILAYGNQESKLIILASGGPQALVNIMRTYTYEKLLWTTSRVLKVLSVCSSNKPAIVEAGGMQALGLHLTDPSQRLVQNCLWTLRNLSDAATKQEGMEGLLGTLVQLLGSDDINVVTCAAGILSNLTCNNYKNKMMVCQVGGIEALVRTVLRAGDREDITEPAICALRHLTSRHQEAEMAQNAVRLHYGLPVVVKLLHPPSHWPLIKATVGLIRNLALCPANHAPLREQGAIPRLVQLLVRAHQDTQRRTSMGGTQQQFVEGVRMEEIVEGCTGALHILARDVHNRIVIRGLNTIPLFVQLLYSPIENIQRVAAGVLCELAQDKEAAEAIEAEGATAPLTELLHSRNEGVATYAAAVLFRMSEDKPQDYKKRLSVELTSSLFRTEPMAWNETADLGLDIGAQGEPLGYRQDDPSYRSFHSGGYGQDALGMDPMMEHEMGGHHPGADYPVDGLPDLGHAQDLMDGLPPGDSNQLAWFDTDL

How the values were obtained:
[1] = target: T1, beta-catenin-B-cell lymphoma 9 protein complex (Homo sapiens, UniProt P35222); assay: Inhibition of N-terminal His6-tagged full-length recombinant beta-catenin (1 to 781 residues) (unknown origin) expressed in Escherichia coli BL21 DE3/N-terminal FAM tagged BCL9 HD2(350 to 375 residues) (unknown origin) protein-protein interaction assessed as inhibition constant incubated for 3 hrs by competitive fluorescence polarization assay
[2] = target: T1, beta-catenin-B-cell lymphoma 9 protein complex; assay: Inhibition of beta-catenin/BCL9 protein-protein interaction in Wnt-dependent human HCT-116 cells assessed as reduction in Axin2 expression level by qRT-PCR assay; format: cell-based

CC(C)c1ccc(COC(=O)N2CCCC(c3cccc(OC(C)(C)C(=O)O)c3)C2)cc1 (configuration not stated)
IC50 [1]: 5.39 µM
IC50 [2]: 14.6 µM
